Patent publication US20090221653A1, “7-(2-amino-1-hydroxy-ethyl)-4-hydroxybenzothiazol-2(3H)-one-derivatives as beta2 adrenoreceptor agonists” (AstraZeneca AB, priority 2005, published 2009)

The chains behind the UniProt entries cited, without tags or fusion partners. Residues count along the entry.
UniProt P07550, whole entry: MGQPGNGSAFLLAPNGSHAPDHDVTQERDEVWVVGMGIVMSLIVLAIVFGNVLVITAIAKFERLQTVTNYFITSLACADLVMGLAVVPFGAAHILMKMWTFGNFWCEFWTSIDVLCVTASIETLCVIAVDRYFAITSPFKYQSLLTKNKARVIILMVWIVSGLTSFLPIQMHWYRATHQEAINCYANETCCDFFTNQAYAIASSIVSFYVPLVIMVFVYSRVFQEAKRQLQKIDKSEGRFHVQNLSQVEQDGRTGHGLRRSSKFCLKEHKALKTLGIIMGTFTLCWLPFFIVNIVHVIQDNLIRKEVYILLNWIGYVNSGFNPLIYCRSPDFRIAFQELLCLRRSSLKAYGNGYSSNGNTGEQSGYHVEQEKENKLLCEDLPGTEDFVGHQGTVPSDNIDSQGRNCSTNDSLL
UniProt P08588, whole entry: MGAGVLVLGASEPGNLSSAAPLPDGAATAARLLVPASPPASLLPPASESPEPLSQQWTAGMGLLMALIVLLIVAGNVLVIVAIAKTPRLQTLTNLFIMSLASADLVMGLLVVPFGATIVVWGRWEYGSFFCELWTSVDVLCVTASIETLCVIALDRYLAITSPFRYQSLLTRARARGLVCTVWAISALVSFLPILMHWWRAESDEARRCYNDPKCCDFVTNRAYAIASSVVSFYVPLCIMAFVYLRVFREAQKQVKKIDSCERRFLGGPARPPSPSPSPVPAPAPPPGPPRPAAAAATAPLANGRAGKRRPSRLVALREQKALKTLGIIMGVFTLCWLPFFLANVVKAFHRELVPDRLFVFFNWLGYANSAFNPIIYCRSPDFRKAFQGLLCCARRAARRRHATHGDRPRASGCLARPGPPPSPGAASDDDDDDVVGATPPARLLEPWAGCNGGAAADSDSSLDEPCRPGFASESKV
UniProt P14416, 1-414 isoform P14416-2: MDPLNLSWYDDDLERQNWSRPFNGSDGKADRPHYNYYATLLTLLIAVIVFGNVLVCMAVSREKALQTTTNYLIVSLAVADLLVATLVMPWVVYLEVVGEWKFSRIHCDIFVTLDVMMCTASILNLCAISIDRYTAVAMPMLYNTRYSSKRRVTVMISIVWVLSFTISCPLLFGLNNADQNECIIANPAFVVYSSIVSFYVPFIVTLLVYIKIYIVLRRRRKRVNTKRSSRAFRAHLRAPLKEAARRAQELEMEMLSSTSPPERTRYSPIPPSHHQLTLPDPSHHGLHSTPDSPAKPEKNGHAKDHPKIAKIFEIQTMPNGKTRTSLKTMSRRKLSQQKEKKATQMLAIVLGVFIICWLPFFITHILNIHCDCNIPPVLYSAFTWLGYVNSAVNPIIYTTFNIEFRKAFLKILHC

What was measured:
Adrenergic β2 = biological target: T1, Adrenergic β2 (Homo sapiens, UniProt P07550); assay: Alternative Adrenergic β2 Mediated cAMP Production in H292 cells (AlphaScreen cAMP detection); type: cell-based; settings: test compounds incubated 60 minutes, 300 μM rolipram, read-out: β2 pEC50 (converted)
T1 construct: H292 cells were grown in RPMI; endogenous in cells; host or cells: H292 cells

[1] = biological target: T2, recombinant human adrenergic beta 1 receptors (Homo sapiens, UniProt P08588); assay: Adrenergic β1 selectivity assay, inhibition of [125I]-Iodocyanopindolol binding; settings: membranes, read-out: β1 bind pIC50 (converted)
T2 construct: purchased Euroscreen

[2] = biological target: T3, recombinant human Dopamine Subtype D2s receptors (Homo sapiens, UniProt P14416); assay: Dopamine D2 selectivity assay, inhibition of [3H]-spiperone binding; settings: membranes, [3H]-spiperone 0.16 nM; read-out: D2 bind pIC50 (converted)
T3 construct: purchased Perkin Elmer

Compound	EC50 (Adrenergic β2) [nM]	IC50 [1] [nM]	IC50 [2] [nM]
CCOc1ccc(CCNCCCSCCNC[C@H](O)c2ccc(O)c3[nH]c(=O)sc23)cc1 [Example 16, 7-[(1R)-2-({2-[(3-{[2-(4-Ethoxyphenyl)ethyl]amino}propyl)thio]ethyl}amino)-1-hydroxyethyl]-4-hydroxy-1,3-benzothiazol-2(3H)-one]	12.6	126	3980
O=c1[nH]c2c(O)ccc([C@@H](O)CNCCOCCCNCCc3cccc(Cl)c3)c2s1 [Example 36, 7-((1R)-2-{[2-(3-{[2-(3-Chlorophenyl)ethyl]amino}propoxy)ethyl]amino}-1-hydroxyethyl)-4-hydroxy-1,3-benzothiazol-2(3H)-one]	–	–	3160
O=c1[nH]c2c(O)ccc([C@@H](O)CNCCSCCCNCCc3cccc(Cl)c3Cl)c2s1 [Example 38, 7-[(1R)-2-({2-[(3-{[2-(2,3-Dichlorophenyl)ethyl]amino}propyl)thio]ethyl}amino)-1-hydroxyethyl]-4-hydroxy-1,3-benzothiazol-2(3H)-one dihydrochloride]	–	79.4	–

Where a name gives a salt, the structure may show the parent alone.
